Source: ChEMBL document CHEMBL1129493 (J Med Chem, 1996)

Assays:
P388 [1] = assay: Cytotoxic Activity was evaluated against P388D1 cells; assay type: functional, Mus musculus
MCF7 [2] = assay: Cytotoxic activity was evaluated against MCF-7 cells; assay type: functional, Homo sapiens
Mus musculus = organism: Mus musculus; assay: Relative concentration of compound in lung compared to concentration in plasma (0.4 ug/mL) at the time of tissue collection from mice; relative concentration
KB [3] = assay: Cytotoxic activity was evaluated against KBV-1 cells in presence of reserpine; assay type: functional, Homo sapiens
KB [4] = assay: Cytotoxic activity was evaluated against KBV-1 cells; assay type: functional, Homo sapiens
P388 [5] = assay: Cytotoxic activity was evaluated against P388D1/ADR cells; assay type: functional, Mus musculus
MCF7 [6] = assay: Cytotoxic activity was evaluated against MCF-7/ADR cells; assay type: functional, Homo sapiens
MCF7 [7] = assay: Cytotoxic activity was evaluated against MCF-7/ADR+Reserpine cells; assay type: functional, Homo sapiens
P388 [8] = assay: Cytotoxic activity was evaluated against P388/ADR + reserpine cells; assay type: functional, Mus musculus
KB 3-1 = assay: Cytotoxic activity was evaluated against KB3-1 cells; assay type: functional, Homo sapiens

Compound	Relative IC50 (P388 [1])	Relative IC50 (MCF7 [2]) [nM]	Kp (Mus musculus)	Relative IC50 (KB [3])	Relative IC50 (KB [4])	Relative IC50 (P388 [5]) [nM]	Relative IC50 (MCF7 [6])	Relative IC50 (MCF7 [7])	Relative IC50 (P388 [8]) [nM]	Relative IC50 (KB 3-1)
CCC(CC)n1c(C)cc2c3c(N)nc(N)nc3ccc21	1	1	50	0.8	1	0.8	0.9	0.6	0.9	1
CCC(CC)n1ccc2c3c(N)nc(N)nc3ccc21	–	1	57	1.1	1.1	–	0.9	0.7	–	1
